Test results as given in the supplement of paper PMC8633005.

How the values were obtained:
Assay in all cases: drug sensitivity score (DSS) (DSS (unitless, 0-50 scale)); higher = more sensitive (stronger viability inhibition); extreme values may be limits of the assay
Conditions in all cases: 72 h; culture: 2D
[1] = tested on: SK-MEL-28
Summary of the method: (§1)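 Patient-derived melanoma cultures (1000–1500 cells per well) and melanoma cell lines were grown in 2D in 384-well plates holding a 527-compound oncology library. Each compound was dissolved in DMSO or water and tested at five concentrations spanning a 10,000-fold range. After 72 h at 37 °C, viability was read by CellTiter-Glo luminescence. A drug sensitivity score, a modified area-under-curve measure, was derived from dose-response curves fitted in the in-house Breeze software.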

[2] = tested on: FM-MEL-2
Summary of the method: as §1

[3] = tested on: WM165
Summary of the method: as §1

[4] = tested on: Bowes
Summary of the method: as §1

[5] = tested on: SK-MEL-2
Summary of the method: as §1

[6] = tested on: FM-MEL-6
Summary of the method: as §1

[7] = tested on: WM852
Summary of the method: as §1

[8] = tested on: FM-MEL-3
Summary of the method: as §1

Measured: drug sensitivity score

NCc1ccc(OCCCc2sc(-c3ccc4c(c3)/C(=N/Nc3nc5ccccc5s3)CCC4)nc2C(=O)O)cc1 [WEHI-539]
0: all assays above
